Protein sequences, listed by entry. Tags and fused reporters are not part of them. Lines headed by an entry give the natural chain unless they say otherwise; changes in a name come on top.
UniProt P00915: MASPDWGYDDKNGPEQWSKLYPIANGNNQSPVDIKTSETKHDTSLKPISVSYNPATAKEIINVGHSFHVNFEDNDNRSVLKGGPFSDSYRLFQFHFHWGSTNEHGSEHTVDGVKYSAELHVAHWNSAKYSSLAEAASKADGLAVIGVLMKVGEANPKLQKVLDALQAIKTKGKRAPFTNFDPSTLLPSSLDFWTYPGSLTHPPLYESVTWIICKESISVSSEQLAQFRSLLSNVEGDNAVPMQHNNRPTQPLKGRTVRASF
UniProt P22748: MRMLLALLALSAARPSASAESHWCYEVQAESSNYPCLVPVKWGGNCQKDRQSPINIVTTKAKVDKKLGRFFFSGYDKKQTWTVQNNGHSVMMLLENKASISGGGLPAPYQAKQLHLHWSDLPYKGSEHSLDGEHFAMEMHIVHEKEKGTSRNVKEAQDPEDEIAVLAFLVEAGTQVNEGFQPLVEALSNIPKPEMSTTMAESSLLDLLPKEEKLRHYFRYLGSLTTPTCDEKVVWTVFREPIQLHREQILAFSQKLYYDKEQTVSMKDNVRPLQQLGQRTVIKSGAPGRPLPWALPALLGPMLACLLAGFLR

In ChEMBL document CHEMBL1141918 (Bioorg Med Chem Lett, 2005):

Experiments:
[1] = biological target: Carbonic anhydrase 1 (Homo sapiens, UniProt P00915); test: Inhibitory constant against human isozyme carbonic anhydrase I for the CO2 hydration reaction at 20 degree C
[2] = biological target: Carbonic anhydrase 4 (Homo sapiens, UniProt P22748); test: Inhibitory constant against human isozymes carbonic anhydrase IV for the CO2 hydration reaction at 20 degree C
[3] = biological target: Carbonic anhydrase 9 (Homo sapiens, UniProt Q16790); test: Inhibitory constant against human isozymes carbonic anhydrase IX for the CO2 hydration reaction at 20 C

Row | Substance | Ki [1] [µM] | Ki [2] [µM] | Ki [3] [µM]
1 | [Au(CN)2] | 7.7 | – | –
2 | [Cu(CN)2]- | 6.9 | 9.8 | –
3 | [NbF7]2 | – | – | 100
